Experimental data published in US20250195530A1, “POLQ INHIBITORS” (ASTRAZENECA AB, priority 2022, published 2025).

Sequences of proteins named here, by UniProt entry; tags and fusion partners are left off. Residues count along the entry.
UniProt O75417, 1780-2590: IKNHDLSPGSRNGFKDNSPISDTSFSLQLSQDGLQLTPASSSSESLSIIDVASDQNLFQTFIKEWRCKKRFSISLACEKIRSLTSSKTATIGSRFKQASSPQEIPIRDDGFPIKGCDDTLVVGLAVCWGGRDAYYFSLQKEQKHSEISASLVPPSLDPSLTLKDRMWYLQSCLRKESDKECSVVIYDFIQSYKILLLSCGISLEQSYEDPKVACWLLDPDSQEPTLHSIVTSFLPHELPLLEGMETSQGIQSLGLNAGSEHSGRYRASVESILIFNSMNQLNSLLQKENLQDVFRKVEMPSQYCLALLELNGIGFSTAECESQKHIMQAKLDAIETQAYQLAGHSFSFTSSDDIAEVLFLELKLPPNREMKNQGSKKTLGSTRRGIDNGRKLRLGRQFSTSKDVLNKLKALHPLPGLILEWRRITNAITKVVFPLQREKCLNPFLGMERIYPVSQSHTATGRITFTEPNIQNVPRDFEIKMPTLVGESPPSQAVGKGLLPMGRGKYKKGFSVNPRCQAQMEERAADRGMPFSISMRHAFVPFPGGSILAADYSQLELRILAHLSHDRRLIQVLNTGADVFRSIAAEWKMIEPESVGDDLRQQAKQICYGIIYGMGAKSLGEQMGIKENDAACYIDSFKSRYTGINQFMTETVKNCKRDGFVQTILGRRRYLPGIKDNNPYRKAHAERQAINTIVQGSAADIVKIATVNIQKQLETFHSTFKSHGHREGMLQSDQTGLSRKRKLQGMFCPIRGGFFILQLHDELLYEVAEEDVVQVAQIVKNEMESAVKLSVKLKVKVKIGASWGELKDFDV

Biological target: isolated polymerase domain (I1780-V2590) of DNA polymerase theta (Polθ) (Homo sapiens (Human), UniProt O75417)
Assay: biochemical

With CC(CCOc1ccc(-c2nc3c(OC4(C)CC4)ncnc3n2Cc2cc(C(F)(F)F)cc(Cl)c2F)c(Cl)c1)C(=O)O (racemic) [Example U35, 4-(3-chloro-4-(9-(3-chloro-2-fluoro-5-(trifluoromethyl)benzyl)-6-(1-methylcyclopropoxy)-9H-purin-8-yl)phenoxy)-2-methylbutanoic acid] the IC50 was 10 nM.
Cc1ccnc(Cn2c(-c3ccc(OC4CCS(=O)(=O)CC4)cc3Cl)nc3c(OC4(C)CC4)ncnc32)c1 [Example T335, 4-(3-chloro-4-(6-(1-methylcyclopropoxy)-9-((4-methylpyridin-2-yl)methyl)-9H-purin-8-yl)phenoxy)tetrahydro-2H-thiopyran 1,1-dioxide] showed an IC50 of 6.31 nM.
Molecule CC(c1cc(Cl)ccn1)n1c(-c2ccc(OCCN3CCNCC3)cc2Cl)nc2c(OC3(C)CC3)ncnc21 (single isomer, unassigned; isomer 1) [Example S6, 8-(2-chloro-4-(2-(piperazin-1-yl)ethoxy)phenyl)-9-(1-(4-chloropyridin-2-yl)ethyl)-6-(1-methylcyclopropoxy)-9H-purine (Isomer 1)] has an IC50 of 3.16 nM.
In the case of CC1(Oc2ncnc3c2nc(-c2ccc(OCCN4CCNCC4)cc2Cl)n3Cc2ccc(C#N)cn2)CC1 [Example T484, 6-((8-(2-chloro-4-(2-(piperazin-1-yl)ethoxy)phenyl)-6-(1-methylcyclopropoxy)-9H-purin-9-yl)methyl)nicotinonitrile], the IC50 is reported as 100 nM.
With Cc1ccnc(Cn2c(-c3ccc(OCC(=O)NCC(F)(F)F)cc3Cl)nc3c(OC4(C)CC4)ncnc32)c1 [Example T154, 2-(3-chloro-4-(6-(1-methylcyclopropoxy)-9-((4-methylpyridin-2-yl)methyl)-9H-purin-8-yl)phenoxy)-N-(2,2,2-trifluoroethyl)acetamide] the IC50 was 6.31 nM.
With CC(C)(C)Oc1cccc2c1nc(-c1ccc(OCCN3CCNCC3)cc1Cl)n2Cc1cccc(Cl)c1 [Example T608, 4-(tert-butoxy)-2-(2-chloro-4-(2-(piperazin-1-yl)ethoxy)phenyl)-1-(3-chlorobenzyl)-1H-benzo[d]imidazole] the IC50 was 12.6 nM.
Cc1ccnc(Cn2c(-c3cccc(OCCCN4CC(O)C4)c3Cl)nc3c(OC4(C)CC4)ncnc32)c1 [Example T514, 1-(3-(2-chloro-3-(6-(1-methylcyclopropoxy)-9-((4-methylpyridin-2-yl)methyl)-9H-purin-8-yl)phenoxy)propyl)azetidin-3-ol] showed an IC50 of 7.94 nM.
C[C@H](CCOc1ccc(-c2nc3c(OC4(C)CC4)ncnc3n2Cc2cc(Cl)ccc2F)c(Cl)c1)C(=O)O [Example U10, (R)-4-(3-chloro-4-(9-(5-chloro-2-fluorobenzyl)-6-(1-methylcyclopropoxy)-9H-purin-8-yl)phenoxy)-2-methylbutanoic acid] gave an IC50 of 3.98 nM.
For Cc1ccnc(Cn2c(-c3ccc(OC4CNC(=O)OC4)cc3Cl)nc3c(OC4(C)CC4)ncnc32)c1 (racemic) [Example T187, 5-(3-chloro-4-(6-(1-methylcyclopropoxy)-9-((4-methylpyridin-2-yl)methyl)-9H-purin-8-yl)phenoxy)-1,3-oxazinan-2-one], the IC50 was 15.8 nM.
Work on Cc1ccnc(Cn2c(-c3ccc(CC(=O)N4CCNC(=O)C4)cc3Cl)nc3c(OC4(C)CC4)ncnc32)c1 [Example T431, 4-(2-(3-chloro-4-(6-(1-methylcyclopropoxy)-9-((4-methylpyridin-2-yl)methyl)-9H-purin-8-yl)phenyl)acetyl)piperazin-2-one] yielded an IC50 of 15.8 nM.
Molecule Cc1ccnc(Cn2c(-c3ccc(O[C@@H]4CC[C@@H](O)C4)cc3Cl)nc3c(OC4(C)CC4)ncnc32)c1 (relative stereo) [Example T330, rel-(1R,3R)-3-(3-chloro-4-(6-(1-methylcyclopropoxy)-9-((4-methylpyridin-2-yl)methyl)-9H-purin-8-yl)phenoxy)cyclopentan-1-ol] has an IC50 of 6.31 nM.
For CC(C)(CCOc1cccc(-c2nc3c(OC4(C)CC4)ncnc3n2Cc2cccc(Cl)c2)c1Cl)CC(=O)O [Example U28, 5-(2-chloro-3-(9-(3-chlorobenzyl)-6-(1-methylcyclopropoxy)-9H-purin-8-yl)phenoxy)-3,3-dimethylpentanoic acid], the IC50 was 7.94 nM.
Work on C[C@@H](CCOc1ccc(-c2nc3c(OC4(C)CC4)ncnc3n2Cc2ccccc2C#N)c(Cl)c1)C(=O)O [Example T403, (S)-4-(3-chloro-4-(9-(2-cyanobenzyl)-6-(1-methylcyclopropoxy)-9H-purin-8-yl)phenoxy)-2-methylbutanoic acid] yielded an IC50 of 10 nM.
For Cc1ccnc(Cn2c(-c3ccc(OCC(=O)N4CC(O)C4)cc3Cl)nc3c(OC4(C)CC4)ncnc32)c1 [Example T322, 2-(3-chloro-4-(6-(1-methylcyclopropoxy)-9-((4-methylpyridin-2-yl)methyl)-9H-purin-8-yl)phenoxy)-1-(3-hydroxyazetidin-1-yl)ethan-1-one], the IC50 was 7.94 nM.
For CC(COc1ccc(-c2nc3c(OC4(C)CC4)ncnc3n2Cc2cccc(Cl)c2)c(Cl)c1)CC(=O)O (single isomer, unassigned) [Example T294, 4-(3-chloro-4-(9-(3-chlorobenzyl)-6-(1-methylcyclopropoxy)-9H-purin-8-yl)phenoxy)-3-methylbutanoic acid], the IC50 was 6.31 nM.
Cc1ccnc(Cn2c(-c3ccc(OCCN(C)C)cc3Cl)nc3c(OC4(C)CC4)nccc32)c1 [Example T381, 2-(3-chloro-4-(4-(1-methylcyclopropoxy)-1-((4-methylpyridin-2-yl)methyl)-1H-imidazo[4,5-c]pyridin-2-yl)phenoxy)-N,N-dimethylethan-1-amine] showed an IC50 of 10 nM.
Cc1ccnc(Cn2c(-c3ccc(CC(=O)NC(C)C)cc3Cl)nc3c(OC4(C)CC4)ncnc32)c1 [Example T357, 2-(3-chloro-4-(6-(1-methylcyclopropoxy)-9-((4-methylpyridin-2-yl)methyl)-9H-purin-8-yl)phenyl)-N-isopropylacetamide] was tested, and the IC50 was 7.94 nM.
In the case of CN(C)CCCOc1ccc(-c2nc3c(OC4(C)CC4)ncnc3n2Cc2cc(C(F)F)ccn2)c(Cl)c1 [Example T352, 3-(3-chloro-4-(9-((4-(difluoromethyl)pyridin-2-yl)methyl)-6-(1-methylcyclopropoxy)-9H-purin-8-yl)phenoxy)-N,N-dimethylpropan-1-amine], the IC50 is reported as 6.31 nM.
Cc1ccnc(Cn2c(-c3ccc(N4CCOCC4=O)cc3Cl)nc3c(OC4(C)CC4)ncnc32)c1 [Example T182, 4-(3-chloro-4-(6-(1-methylcyclopropoxy)-9-((4-methylpyridin-2-yl)methyl)-9H-purin-8-yl)phenyl)morpholin-3-one] was tested, and the IC50 was 15.8 nM.
Cc1ccnc(Cn2c(-c3ccc(CN(C)C)cc3Cl)nc3c(OC4(C)CC4)ncnc32)c1 [Example T136, 1-(3-chloro-4-(6-(1-methylcyclopropoxy)-9-((4-methylpyridin-2-yl)methyl)-9H-purin-8-yl)phenyl)-N,N-dimethylmethanamine] was tested, and the IC50 was 6.31 nM.
With COc1cc(Cl)cc(Cn2c(-c3ccc(OCCC(C)C(=O)O)cc3Cl)nc3c(OC4(C)CC4)ncnc32)c1 (single isomer, unassigned) [Example T446, 4-(3-chloro-4-(9-(3-chloro-5-methoxybenzyl)-6-(1-methylcyclopropoxy)-9H-purin-8-yl)phenoxy)-2-methylbutanoic acid] the IC50 was 6.31 nM.
With CC(CCOc1ccc(-c2nc3c(OC(C)(C)C(F)(F)F)ncnc3n2Cc2cccc(Cl)c2)c(Cl)c1)C(=O)O (racemic) [Example T274, 4-(3-chloro-4-(9-(3-chlorobenzyl)-6-((1,1,1-trifluoro-2-methylpropan-2-yl)oxy)-9H-purin-8-yl)phenoxy)-2-methylbutanoic acid] the IC50 was 3.98 nM.
Cc1ccnc(Cn2c(-c3ccc(CCO)cc3Cl)nc3c(OC4(C)CC4)ncnc32)c1 [Example T65, 2-(3-chloro-4-(6-(1-methylcyclopropoxy)-9-((4-methylpyridin-2-yl)methyl)-9H-purin-8-yl)phenyl)ethan-1-ol] gave an IC50 of 7.94 nM.
Work on CC(CCOc1ccc(-c2nc3c(OC4(C)CC4)ncnc3n2Cc2cccc(C(F)F)c2)c(Cl)c1)C(=O)O (single isomer, unassigned) [Example T413, 4-(3-chloro-4-(9-(3-(difluoromethyl)benzyl)-6-(1-methylcyclopropoxy)-9H-purin-8-yl)phenoxy)-2-methylbutanoic acid] yielded an IC50 of 7.94 nM.
CC1(Oc2ncnc3c2nc(-c2ccc(OCCCC(C)(C)C(=O)O)cc2Cl)n3Cc2ccccc2C#N)CC1 [Example U21, 5-(3-chloro-4-(9-(2-cyanobenzyl)-6-(1-methylcyclopropoxy)-9H-purin-8-yl)phenoxy)-2,2-dimethylpentanoic acid] showed an IC50 of 5.01 nM.
Molecule CC(CCc1ccc(-c2nc3c(OC4(C)CC4)ncnc3n2Cc2cccc(Cl)c2)c(Cl)c1)C(=O)O (racemic) [Example T290, 4-(3-chloro-4-(9-(3-chlorobenzyl)-6-(1-methylcyclopropoxy)-9H-purin-8-yl)phenyl)-2-methylbutanoic acid] has an IC50 of 6.31 nM.
With COC(=O)CCOc1ccc(-c2nc3c(OC4(C)CC4)ncnc3n2Cc2cccc(Cl)c2)c(Cl)c1 [Example T156, methyl 3-(3-chloro-4-(9-(3-chlorobenzyl)-6-(1-methylcyclopropoxy)-9H-purin-8-yl)phenoxy)propanoate] the IC50 was 3.98 nM.
Cc1ccnc(Cn2c(-c3ccc(OCC(=O)N4CC[C@@](C)(O)C4)cc3Cl)nc3c(OC4(C)CC4)ncnc32)c1 [Example T581, (R)-2-(3-chloro-4-(6-(1-methylcyclopropoxy)-9-((4-methylpyridin-2-yl)methyl)-9H-purin-8-yl)phenoxy)-1-(3-hydroxy-3-methylpyrrolidin-1-yl)ethan-1-one] showed an IC50 of 10 nM.
Cc1ccnc(Cn2c(-c3ccc(OC4COC4)cc3Cl)nc3c(OC4(C)CC4)ncnc32)c1 [Example T103, 8-(2-chloro-4-(oxetan-3-yloxy)phenyl)-6-(1-methylcyclopropoxy)-9-((4-methylpyridin-2-yl)methyl)-9H-purine] showed an IC50 of 6.31 nM.
For Cc1ccnc(Cn2c(-c3ccc(OCC(=O)N4CCOCC4)cc3Cl)nc3c(OC4(C)CC4)ncnc32)c1 [Example T475, 2-(3-chloro-4-(6-(1-methylcyclopropoxy)-9-((4-methylpyridin-2-yl)methyl)-9H-purin-8-yl)phenoxy)-1-morpholinoethan-1-one], the IC50 was 10 nM.
